Measurements published in patent US20040009511A1, “Identification of compounds which stimulate bone formation using a cell-based screening assay targeting BMP signaling” (priority 2002, published 2004).

Tests used:
Format in all cases: cell-based
[1] = system: 9×SBE-6×OSE2-OC-luc reporter construct in 2T3 C-17 cells; experiment: Luciferase assay, 9×SBE-6×OSE2-OC-luc reporter stably transfected in 2T3 clone C-17; set-up: Luciferase Activity: unit not given here; conditions: 24 hours; for Luciferase Activity / Luciferase Activity (fold increase): 2T3 clone 17
Description: (§1) An oligonucleotide containing 9 copies of Smad1 response element (9×SBE) and 6 copies of Cbfa1 response element (6×OSE2) was synthesized in the DNA laboratory at University of Texas Health Science Center at San Antonio. The osteocalcin basal promoter (OC, −155/+1) was amplified by Polymerase Chain Reaction (PCR) using mouse genomic DNA as a template and cloned into pGL3 vector. An 9×SBE-6×OSE2 oligonucleotide was cloned upstream of osteocalcin basal promoter.
(§2) C2C12 and 2T3 cells were plated in 6-well culture plates at densities of 4×10^5 and 2×10^5 cells/well and cultured with DMEM or α minimal essential medium (α MEM) supplemented with 10% FCS for 24 hours. A 9×SBE-6×OSE2-OC-luc-reporter construct (2 μg/well) was co-transfected with pcDNA3 empty vector (0.2 mg/well) in C2C12 and 2T3 cells using lipofactamine plus reagents (Gibco/BRL). Forty eight hours later, G418 (200 μg/ml) was added to the culture plates. Four weeks after G418 selection, the G418 resistant cells were plated in 96-well plates at the density of 1 cell/well and cloned by limiting dilution method.
(§3) C2C12 and 2T3 cells, in which 9×SBE-6×OSE2-OC-luc-reporter construct was stably transfected, were plated in 96-well culture plates at densities of 1×10^4 and 0.5×10^4 cells/well and cultured for 24 hours. The medium was changed to fresh medium supplemented with 2% FCS and different growth factors or hormone were added to culture medium for 24 hours or different compounds were added to culture medium for 2, 6, 12, 24 and 48 hours. The cell lysates were extracted and luciferase activities were determined by luciferase assay kit (Promega, Madison, Wis.) using a Luminometer.
To determine the effects of BMPs on a 9×SBE-6×OSE2-OC-luc reporter construct, C2C12 clone C-10-62 and 2T3 clone C-17 were treated with different concentrations of BMP-2, BMP-4 and BMP-7 for 24 hours and changes in luciferase activity of this reporter construct were examined. In the assay using 2T3 clone 17, different concentrations of BMP-2 (see Table 1), BMP-4 (see Table 2) and BMP-7 (see Table 3) were added to the medium and cultured for 24 hours. At the end of the incubation, the cell lysates were extracted using lysis buffer and luciferase activities were measured using a luciferase assay kit (Promega).

[2] = system: 9×SBE-6×OSE2-OC-luc reporter construct in C2C12 C-10-62 cells; experiment: Luciferase assay, 9×SBE-6×OSE2-OC-luc reporter stably transfected in C2C12 clone C-10-62; conditions: 24 hours
Description: as §1
as §2, with “Four weeks after G418 selection, the G418 resistant cells were plated in 96-well plates at the density of 1 cell/well and cloned by limiting dilution method.” left out
C2C12 and 2T3 cells, in which 9×SBE-6×OSE2-OC-luc-reporter construct was stably transfected, were plated in 96-well culture plates at densities of 1×10^4 and 0.5×10^4 cells/well and cultured for 24 hours. […] The cell lysates were extracted and luciferase activities were determined by luciferase assay kit (Promega, Madison, Wis.) using a Luminometer. […]

[3] = system: 9×SBE-6×OSE2-OC-luc reporter construct; experiment: Luciferase assay, 9×SBE-6×OSE2-OC-luc reporter construct, cells not specified
Text: as §1, §3
Further, a reporter construct which contains multiple copies of both Smad1 (SBE) and Cbfa1 (OSE2) response elements (9×SBE-6×OSE2-OC-luc) was made.

[4] = system: 9×SBE-OC-luc reporter construct in C2C12 cells; experiment: 9×SBE-OC-luc reporter construct response in C2C12 cells
Text: (§4) Multiple copies of a Smad1 response element (9×SBE) were cloned in front of a SV40 basal promoter (9×SBE-SV40-luc) and an osteocalcin basal promoter (9×SBE-OC-luc). […] In contrast, 9×SBE-SV40-luc reporter construct had no response to either BMP-2 treatment or transfection of constitutively active BMPR-IA.

[5] = system: 9×SBE-OC-luc reporter construct in 2T3 cells; experiment: 9×SBE-OC-luc reporter construct response in 2T3 cells
Text: as §4

[6] = system: 9×SBE-SV40-luc reporter construct; experiment: 9×SBE-SV40-luc reporter construct response
Text: as §4

[7] = system: 9×SBE-OC-pGL3 reporter construct with mutated OSE2 site; experiment: OSE2-mutated 9×SBE-OC-pGL3 reporter construct response; conditions: OSE2 site mutated in osteocalcin basal promoter
Text: Further, the OSE2 site was mutated in the osteocalcin basal promoter in 9×SBE-OC-pGL3 reporter construct.

BMP-2: Bone morphogenetic protein 2, growth factor of the TGF-β superfamily
Effect on luciferase activity of the reporter construct ([1]; 2T3 C-17 cells): stimulated luciferase activity in a dose-dependent manner | Luciferase Activity ([1]; BMP-2 0.39 ng/ml): 0.106 | Luciferase Activity (fold increase) ([1]; BMP-2 0.39 ng/ml): 1.6 fold | Luciferase Activity ([1]; BMP-2 0.78 ng/ml): 0.148 | Luciferase Activity (fold increase) ([1]; BMP-2 0.78 ng/ml): 2.2 fold | Luciferase Activity ([1]; BMP-2 1.56 ng/ml): 0.200 | Luciferase Activity (fold increase) ([1]; BMP-2 1.56 ng/ml): 3.0 fold | Luciferase Activity ([1]; BMP-2 3.125 ng/ml): 0.305 | Luciferase Activity (fold increase) ([1]; BMP-2 3.125 ng/ml): 4.6 fold | Luciferase Activity ([1]; BMP-2 6.25 ng/ml): 0.492 | Luciferase Activity (fold increase) ([1]; BMP-2 6.25 ng/ml): 7.3 fold | Luciferase Activity ([1]; BMP-2 12.5 ng/ml): 0.761 | Luciferase Activity (fold increase) ([1]; BMP-2 12.5 ng/ml): 11.4 fold | Luciferase Activity ([1]; BMP-2 25 ng/ml): 1.235 | Luciferase Activity (fold increase) ([1]; BMP-2 25 ng/ml): 18.4 fold | Luciferase Activity ([1]; BMP-2 50 ng/ml): 1.680 | Luciferase Activity (fold increase) ([1]; BMP-2 50 ng/ml): 25.1 fold | Luciferase Activity ([1]; BMP-2 100 ng/ml): 2.102 | Luciferase Activity (fold increase) ([1]; BMP-2 100 ng/ml): 31.4 fold | Effect on luciferase activity of the reporter construct [2]: stimulated luciferase activity in a dose-dependent manner | Dose-response and time-course effect on luciferase activity of the reporter construct ([3]; cells not specified): stimulates the luciferase activity of this reporter construct in a dose- and time-dependent manner | Responsiveness to BMP-2 of 9×SBE-6×OSE2-OC-luc relative to 9×SBE-OC-luc ([3]; compared with construct 9×SBE-OC-luc): about 10 fold | Minimal effective dose ([3]; stimulation of luciferase activity, stated for C2C12 C-10-62 and 2T3 C-17 without distinction): 1 to 2 ng/mL | Response of 9×SBE-OC-luc reporter construct [4]: responded to BMP-2 in a dose-dependent manner | Response of 9×SBE-OC-luc reporter construct [5]: responded to BMP-2 in a dose-dependent manner | Response of 9×SBE-SV40-luc reporter construct [6]: no response | Response of OSE2-mutated 9×SBE-OC-pGL3 reporter construct [7]: completely lost its responses
